# Membrane permeability of cyclic peptides

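The data file gives no further conditions (lipid, pH, time, direction or concentration), and values from different papers need not be comparable. Other peptides of the study may be missing here. Peptides that the database sets to -10, its floor, are left out.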

PAMPA is the parallel artificial membrane permeability assay, which has no cells and reads passive diffusion.
Permeability is given as log10 of P in cm/s; higher (less negative) is more permeable.

| SMILES | PAMPA (log10 cm/s) |
|---|---|
| CC(=O)N1CCC[C@H]1C(=O)N(C)[C@@H](CC(C)C)C(=O)N[C@@H]1C(=O)N[C@@H](CC(C)C)C(=O)N[C@@H](CC(C)C)C(=O)N[C@H](CC(C)C)C(=O)N[C@H](C)C(=O)N[C@@H](CC(C)C)C(=O)N2CCC[C@@H]2C(=O)O[C@@H]1C | -6.70 |
| CC(=O)N1CCC[C@H]1C(=O)N(C)[C@@H](CC(C)C)C(=O)N[C@@H]1C(=O)N[C@H](CC(C)C)C(=O)N[C@@H](CC(C)C)C(=O)N(C)[C@@H](CC(C)C)C(=O)N(C)[C@H](C)C(=O)N[C@H](CC(C)C)C(=O)N2CCC[C@H]2C(=O)O[C@@H]1C | -5.78 |
| CC(=O)N[C@@H]1C(=O)N2CCC[C@H]2C(=O)N(C)[C@H](CC(C)C)C(=O)N(C)[C@H](CC(C)C)C(=O)N[C@@H](CC(C)C)C(=O)N(C)[C@@H](CC(C)C)C(=O)N[C@@H](C)C(=O)N[C@@H](CC(C)C)C(=O)N2CCC[C@@H]2C(=O)O[C@@H]1C | -5.02 |
| CC(=O)N1CCC[C@@H]1C(=O)N(C)[C@@H](CC(C)C)C(=O)N[C@@H]1C(=O)N[C@@H](CC(C)C)C(=O)N[C@@H](CC(C)C)C(=O)N[C@H](CC(C)C)C(=O)N[C@@H](C)C(=O)N[C@@H](CC(C)C)C(=O)N2CCC[C@@H]2C(=O)O[C@@H]1C | -6.92 |
| CC(=O)N1CCC[C@H]1C(=O)N(C)[C@@H](CC(C)C)C(=O)N[C@@H]1C(=O)N[C@H](CC(C)C)C(=O)N[C@@H](CC(C)C)C(=O)N[C@H](CC(C)C)C(=O)N(C)[C@@H](C)C(=O)N[C@@H](CC(C)C)C(=O)N2CCC[C@H]2C(=O)O[C@@H]1C | -5.47 |
| CC(=O)N1CCC[C@@H]1C(=O)N(C)[C@H](CC(C)C)C(=O)N[C@@H]1C(=O)N[C@@H](CC(C)C)C(=O)N(C)[C@@H](CC(C)C)C(=O)N[C@@H](CC(C)C)C(=O)N(C)[C@@H](C)C(=O)N[C@H](CC(C)C)C(=O)N2CCC[C@@H]2C(=O)O[C@@H]1C | -5.96 |
| CC(=O)N1CCC[C@H]1C(=O)N(C)[C@H](CC(C)C)C(=O)N[C@@H]1C(=O)N(C)[C@@H](CC(C)C)C(=O)N(C)[C@@H](CC(C)C)C(=O)N(C)[C@H](CC(C)C)C(=O)N(C)[C@H](C)C(=O)N[C@H](CC(C)C)C(=O)N2CCC[C@H]2C(=O)O[C@@H]1C | -5.44 |
| CC(=O)N1CCC[C@@H]1C(=O)N(C)[C@@H](CC(C)C)C(=O)N[C@@H]1C(=O)N[C@H](CC(C)C)C(=O)N[C@H](CC(C)C)C(=O)N[C@H](CC(C)C)C(=O)N(C)[C@H](C)C(=O)N[C@H](CC(C)C)C(=O)N2CCC[C@H]2C(=O)O[C@@H]1C | -6.98 |
| CC(=O)N1CCC[C@H]1C(=O)N(C)[C@H](CC(C)C)C(=O)N[C@@H]1C(=O)N[C@H](CC(C)C)C(=O)N(C)[C@H](CC(C)C)C(=O)N(C)[C@H](CC(C)C)C(=O)N[C@H](C)C(=O)N[C@@H](CC(C)C)C(=O)N2CCC[C@H]2C(=O)O[C@@H]1C | -5.18 |
| CC(=O)N1CCC[C@H]1C(=O)N(C)[C@H](CC(C)C)C(=O)N[C@@H]1C(=O)N(C)[C@@H](CC(C)C)C(=O)N[C@@H](CC(C)C)C(=O)N[C@@H](CC(C)C)C(=O)N[C@@H](C)C(=O)N[C@H](CC(C)C)C(=O)N2CCC[C@H]2C(=O)O[C@@H]1C | -6.72 |
| CC(=O)N1CCC[C@H]1C(=O)N(C)[C@@H](CC(C)C)C(=O)N[C@@H]1C(=O)N[C@H](CC(C)C)C(=O)N(C)[C@@H](CC(C)C)C(=O)N(C)[C@@H](CC(C)C)C(=O)N[C@@H](C)C(=O)N[C@H](CC(C)C)C(=O)N2CCC[C@H]2C(=O)O[C@@H]1C | -5.37 |
| CC(=O)N1CCC[C@H]1C(=O)N[C@@H]1C(=O)N[C@H](CC(C)C)C(=O)N(C)[C@H](CC(C)C)C(=O)N[C@H](CC(C)C)C(=O)N(C)[C@@H](CC(C)C)C(=O)N[C@@H](C)C(=O)N[C@@H](CC(C)C)C(=O)N2CCC[C@@H]2C(=O)O[C@@H]1C | -5.23 |
| CC(=O)N1CCC[C@H]1C(=O)N(C)[C@@H](CC(C)C)C(=O)N[C@@H]1C(=O)N[C@H](CC(C)C)C(=O)N[C@H](CC(C)C)C(=O)N[C@@H](CC(C)C)C(=O)N(C)[C@H](C)C(=O)N[C@H](CC(C)C)C(=O)N2CCC[C@H]2C(=O)O[C@@H]1C | -5.90 |
| CC(=O)N1CCC[C@@H]1C(=O)N(C)[C@@H](CC(C)C)C(=O)N[C@@H]1C(=O)N[C@H](CC(C)C)C(=O)N(C)[C@H](CC(C)C)C(=O)N(C)[C@H](CC(C)C)C(=O)N[C@@H](C)C(=O)N[C@H](CC(C)C)C(=O)N2CCC[C@H]2C(=O)O[C@@H]1C | -5.56 |
| CC(=O)N1CCC[C@@H]1C(=O)N(C)[C@@H](CC(C)C)C(=O)N[C@@H]1C(=O)N(C)[C@@H](CC(C)C)C(=O)N(C)[C@@H](CC(C)C)C(=O)N[C@@H](CC(C)C)C(=O)N[C@@H](C)C(=O)N[C@H](CC(C)C)C(=O)N2CCC[C@H]2C(=O)O[C@@H]1C | -7.37 |
| CC(=O)N1CCC[C@@H]1C(=O)N(C)[C@@H](CC(C)C)C(=O)N[C@@H]1C(=O)N(C)[C@@H](CC(C)C)C(=O)N[C@@H](CC(C)C)C(=O)N(C)[C@@H](CC(C)C)C(=O)N(C)[C@@H](C)C(=O)N[C@@H](CC(C)C)C(=O)N2CCC[C@H]2C(=O)O[C@@H]1C | -5.63 |
| CC(=O)N1CCC[C@@H]1C(=O)N(C)[C@H](CC(C)C)C(=O)N[C@@H]1C(=O)N[C@@H](CC(C)C)C(=O)N[C@@H](CC(C)C)C(=O)N(C)[C@H](CC(C)C)C(=O)N(C)[C@@H](C)C(=O)N[C@@H](CC(C)C)C(=O)N2CCC[C@H]2C(=O)O[C@@H]1C | -6.07 |
| CC(=O)N1CCC[C@H]1C(=O)N(C)[C@@H](CC(C)C)C(=O)N[C@@H]1C(=O)N(C)[C@H](CC(C)C)C(=O)N(C)[C@H](CC(C)C)C(=O)N(C)[C@@H](CC(C)C)C(=O)N(C)[C@H](C)C(=O)N[C@H](CC(C)C)C(=O)N2CCC[C@@H]2C(=O)O[C@@H]1C | -5.93 |
| CC(=O)N1CCC[C@H]1C(=O)N(C)[C@@H](CC(C)C)C(=O)N[C@@H]1C(=O)N[C@H](CC(C)C)C(=O)N[C@@H](CC(C)C)C(=O)N(C)[C@H](CC(C)C)C(=O)N(C)[C@H](C)C(=O)N[C@@H](CC(C)C)C(=O)N2CCC[C@H]2C(=O)O[C@@H]1C | -5.48 |
| CC(=O)N1CCC[C@H]1C(=O)N(C)[C@@H](CC(C)C)C(=O)N[C@@H]1C(=O)N(C)[C@H](CC(C)C)C(=O)N[C@@H](CC(C)C)C(=O)N(C)[C@@H](CC(C)C)C(=O)N(C)[C@H](C)C(=O)N[C@H](CC(C)C)C(=O)N2CCC[C@@H]2C(=O)O[C@@H]1C | -5.75 |
| CC(=O)N1CCC[C@@H]1C(=O)N(C)[C@@H](CC(C)C)C(=O)N[C@@H]1C(=O)N[C@@H](CC(C)C)C(=O)N[C@@H](CC(C)C)C(=O)N(C)[C@H](CC(C)C)C(=O)N[C@@H](C)C(=O)N[C@H](CC(C)C)C(=O)N2CCC[C@H]2C(=O)O[C@@H]1C | -6.48 |
| CC(=O)N1CCC[C@H]1C(=O)N(C)[C@@H](CC(C)C)C(=O)N[C@@H]1C(=O)N[C@@H](CC(C)C)C(=O)N(C)[C@H](CC(C)C)C(=O)N(C)[C@@H](CC(C)C)C(=O)N(C)[C@@H](C)C(=O)N[C@H](CC(C)C)C(=O)N2CCC[C@@H]2C(=O)O[C@@H]1C | -5.59 |
| CC(=O)N1CCC[C@@H]1C(=O)N(C)[C@@H](CC(C)C)C(=O)N[C@@H]1C(=O)N[C@@H](CC(C)C)C(=O)N(C)[C@H](CC(C)C)C(=O)N(C)[C@@H](CC(C)C)C(=O)N(C)[C@@H](C)C(=O)N[C@@H](CC(C)C)C(=O)N2CCC[C@@H]2C(=O)O[C@@H]1C | -5.21 |

Excerpt, the opening 3 entries:

| SMILES | PAMPA (log10 cm/s) |
|---|---|
| CC(=O)N1CCC[C@H]1C(=O)N(C)[C@@H](CC(C)C)C(=O)N[C@@H]1C(=O)N[C@@H](CC(C)C)C(=O)N[C@@H](CC(C)C)C(=O)N[C@H](CC(C)C)C(=O)N[C@H](C)C(=O)N[C@@H](CC(C)C)C(=O)N2CCC[C@@H]2C(=O)O[C@@H]1C | -6.70 |
| CC(=O)N1CCC[C@H]1C(=O)N(C)[C@@H](CC(C)C)C(=O)N[C@@H]1C(=O)N[C@H](CC(C)C)C(=O)N[C@@H](CC(C)C)C(=O)N(C)[C@@H](CC(C)C)C(=O)N(C)[C@H](C)C(=O)N[C@H](CC(C)C)C(=O)N2CCC[C@H]2C(=O)O[C@@H]1C | -5.78 |
| CC(=O)N[C@@H]1C(=O)N2CCC[C@H]2C(=O)N(C)[C@H](CC(C)C)C(=O)N(C)[C@H](CC(C)C)C(=O)N[C@@H](CC(C)C)C(=O)N(C)[C@@H](CC(C)C)C(=O)N[C@@H](C)C(=O)N[C@@H](CC(C)C)C(=O)N2CCC[C@@H]2C(=O)O[C@@H]1C | -5.02 |

Collected by the curators of CycPeptMPDB (Li et al. 2023) from Kelly et al. 2021, doi:10.1021/jacs.0c06115.